Results reported in PMC11318003 (ACS Medicinal Chemistry Letters, 2024).

Tests used:
[1] = PAMPA, pH 7.4
in vitro = conditions: PAMPA, pH 7.4
[2] = pH 7.4
physchem = conditions: pH 7.4, aqueous buffer, kinetic from dmso stock

Permeability [1] | SMILES | Papp (in vitro) [×10⁻⁶ cm/s] | solubility [2] [%] | solubility at 24 h (physchem) [µM]
10.4 ± 1.69 10-6 cm/s | Cn1c(=O)c2c(ncn2C)n(C)c1=O [Caffeine] | – | – | –
– | O=c1c2ccccc2cnn1CO[C@@H]1C=CO[C@H](CO)[C@@H]1O [Compound 1] | 1.9 ± 0.35 | – | –
– | O=c1c2ccccc2c(-c2ccccc2)nn1CO[C@@H]1C=CO[C@H](CO)[C@@H]1O [Compound 2] | 5.4 ± 0.88 | > 95 | > 95
– | Cc1ccc(-c2nn(CO[C@@H]3C=CO[C@H](CO)[C@@H]3O)c(=O)c3ccccc23)cc1 [Compound 9] | – | 94 | –
